Our source for the IC50 values is patent EP0390558B1, “Aromatase inhibiting 4(5)-imidazoles” (ORION-YHTYMÄ OY, priority 1989, dated 1990).

Amino acid sequences for entries named in this document (tags omitted). A change or cut given only in a name is not applied to a line headed by its entry.
UniProt P11511: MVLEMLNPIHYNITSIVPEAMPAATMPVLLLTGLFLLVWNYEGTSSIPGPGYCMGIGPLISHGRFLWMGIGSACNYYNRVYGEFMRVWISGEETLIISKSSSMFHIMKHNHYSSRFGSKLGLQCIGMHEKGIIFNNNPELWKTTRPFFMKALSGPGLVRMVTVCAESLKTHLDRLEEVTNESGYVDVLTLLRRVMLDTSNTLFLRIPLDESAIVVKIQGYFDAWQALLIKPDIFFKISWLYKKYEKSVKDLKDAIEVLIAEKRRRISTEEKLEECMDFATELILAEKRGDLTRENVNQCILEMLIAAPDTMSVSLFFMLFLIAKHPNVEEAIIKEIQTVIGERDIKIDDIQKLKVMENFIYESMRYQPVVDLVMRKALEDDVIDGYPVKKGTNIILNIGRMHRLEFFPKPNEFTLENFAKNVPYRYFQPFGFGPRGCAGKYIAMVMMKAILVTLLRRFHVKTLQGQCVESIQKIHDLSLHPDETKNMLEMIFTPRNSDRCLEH

The target of the experiment is Human aromatase enzyme (Homo sapiens, UniProt P11511). Briefly: In vitro aromatase inhibition assay (3H2O release from 1,2[3H]-androstene-3,17-dione).

By IC50 is commonly meant the concentration at which inhibition is half-maximal. A low value points to higher potency. Regarding `Cc1ccc(C(CCCc2c[nH]cn2)c2ccccc2)cc1` (stereo not drawn) [Compound 1a, 4-[4-(4-methylphenyl)-4-phenylbutyl]-1H-imidazole], the IC50 turned out to be 2.9 µM.
The compound `Cc1ccc(C(CCCc2cncn2Cc2ccccc2)c2ccccc2)cc1` (stereo not drawn) [Compound 2a, 1-benzyl-5-[4-(4-methylphenyl)-4-phenylbutyl]-1H-imidazole] returned a half-maximal inhibitory concentration (IC50) of 19 µM.
As to `Cc1cccc(C(CCCc2cncn2Cc2ccccc2)c2ccccc2)c1` (stereo not drawn) [Compound 3a, 1-benzyl-5-[4-(3-methylphenyl)-4-phenylbutyl]-1H-imidazole], the half-maximal inhibitory concentration (IC50) worked out at 13 µM.
`Cc1ccccc1C(CCCc1cncn1Cc1ccccc1)c1ccccc1` (stereo not drawn) [Compound 6a, 1-benzyl-5-[4-(2-methylphenyl)-4-phenylbutyl]-1H-imidazole] returned an IC50 of 8.5 µM.
The compound `c1ccc(CC(CCCc2cncn2Cc2ccccc2)c2ccccc2)cc1` (stereo not drawn) [Compound 7a, 1-benzyl-5-(4,5-diphenylpentyl)-1H-imidazole] had an IC50 of 15 µM.
`c1ccc(Cn2cncc2CCCC(c2ccccc2)c2ccccc2)cc1` [Compound 10a, 1-benzyl-5-(4,4-diphenylbutyl)-1H-imidazole] displayed an IC50 of 7 µM.
On to `COc1ccc(C(CCCc2c[nH]cn2)c2ccccc2)cc1` (stereo not drawn) [Compound 11a, 4-[4-(4-methoxyphenyl)-4-phenylbutyl]-1H-imidazole], for which the midpoint of inhibition, the IC50, lay at 3.5 µM.
For `COc1ccc(C(CCCc2c[nH]cn2)c2ccc(OC)cc2)cc1` [Compound 12a, 4-[4,4-bis(4-methoxyphenyl)butyl]-1H-imidazole], the IC50 was determined as 10 µM.
Take `Cc1cc(C)cc(C(CCCc2c[nH]cn2)c2ccccc2)c1` (stereo not drawn) [Compound 14a, 4-[4-(3,5-dimethylphenyl)-4-phenylbutyl]-1H-imidazole]: the half-inhibitory concentration (IC50) stood at 7.5 µM.
`Cc1ccc(C(CCCc2c[nH]cn2)c2ccccc2)cc1C` (stereo not drawn) [Compound 15a, 4-[4-(3,4-dimethylphenyl)-4-phenylbutyl]-1H-imidazole]: the IC50 is 5 µM.
For the compound `Cc1cccc(C(CCCc2c[nH]cn2)c2cc(C)cc(C)c2)c1` (stereo not drawn) [Compound 16a, 4-[4-(3,5-dimethylphenyl)-4-(3-methylphenyl)butyl]-1H-imidazole], the IC50 was determined as 125 µM.
The result for `C(=Cc1c[nH]cn1)CC(c1ccccc1)c1ccccc1` [Compound 22a, 4-(4,4-diphenyl-1-butenyl)-1H-imidazole] reads 8.5 µM.
